By UniProt entry, the sequences of proteins in these tests, tags left out.
UniProt P70597, whole entry: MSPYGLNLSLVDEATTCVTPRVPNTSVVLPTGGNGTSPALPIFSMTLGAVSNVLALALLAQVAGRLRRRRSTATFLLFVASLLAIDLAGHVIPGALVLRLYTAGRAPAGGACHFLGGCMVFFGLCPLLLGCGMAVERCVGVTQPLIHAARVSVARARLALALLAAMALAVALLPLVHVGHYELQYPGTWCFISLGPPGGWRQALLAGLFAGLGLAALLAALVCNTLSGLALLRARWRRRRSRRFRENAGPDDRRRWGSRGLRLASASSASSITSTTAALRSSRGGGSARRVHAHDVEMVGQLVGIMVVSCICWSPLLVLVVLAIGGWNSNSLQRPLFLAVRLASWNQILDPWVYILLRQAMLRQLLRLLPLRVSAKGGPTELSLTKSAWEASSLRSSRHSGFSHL

In US8815903B2, “Indole derivative and pharmacologically acceptable salt thereof” (Kissei Pharmaceutical Co., Ltd., priority 2011, dated 2014):

Biological target: rat EP1 receptor (Rattus norvegicus, UniProt P70597)
Experiment: Test for confirmation of EP1 receptor antagonism (inhibition of PGE2-induced increase in intracellular calcium concentration)
Details: rat EP1 receptor-expressing COS-1 cells; prostaglandin E2 10 nM; fluorescent calcium indicator, FDSS 7000
Method: Test for Confirmation of EP1 Receptor Antagonism
(1) Preparation of Rat EP1 Expression Vector
Using Rat Kidney BD Marathon-Ready cDNA (Nippon Becton Dickinson Company, Ltd.) as a template, a forward primer shown in (SEQ ID NO:1), and a reverse primer shown in (SEQ ID NO:2), a first run of PCR was carried out using KOD-Plus-Ver 2.0 (Toyobo Co., Ltd.). Further, using this amplification product as a template, a forward primer shown in (SEQ ID NO:3), and a reverse primer shown in (SEQ ID NO:4), a second run of PCR was carried out in the same manner. The amplification product obtained by the second run of PCR was incorporated into a vector (pcDNA3.1 D/V5-His-TOPO (registered trademark), Invitrogen Japan K. K.). By a conventional method, the vector containing this amplification product was introduced to E. coli (One Shot TOP 10 Competent Cells, Invitrogen Corporation) to transform. This transformed E. coli was cultured in an LB agar medium for one day. After the culture, colonies were selected and cultured in an LB liquid medium containing 50 μg/mL of ampicillin. After the culture, the vector was purified using a QIAprep Spin Miniprep Kit (Qiagen K. K.). […]

## COc1cc2[nH]c(C(C)(C)C)c(Cc3cccc(-c4nnn[nH]4)n3)c2cc1Cl
  IC50: 19 nM
